From patent US20210206850A1 (ACCURUS BIOSCIENCES, published 2021)

Target: T1, human SIRPα huFc protein (human, UniProt P78324, in part, FITC label in Examples 4 and 9 (FACS); unlabeled in Example 3)
T1 construct: extracellular domain; also called SIRPa huFc; human SIRPaECD huFc; not shown: human Fc
Experiment: FACS on CD47-CHO cells, human SIRPa huFc at 0.2 ug/ml, PE anti-human Fc gamma

B1: human CD47 (full length) expressed on cells (receptor)
chain: not shown
notes: whole, on cells; also called human CD47/CHO cells; CHO/CD47 cells
Does B1 bind?
Result: binds
